One may read the Kd as the equilibrium constant for the complex coming apart. A higher Kd goes with a looser complex.

Protein sequences, listed by entry. Tags and fused reporters are not part of them.
UniProt Q14145, whole entry: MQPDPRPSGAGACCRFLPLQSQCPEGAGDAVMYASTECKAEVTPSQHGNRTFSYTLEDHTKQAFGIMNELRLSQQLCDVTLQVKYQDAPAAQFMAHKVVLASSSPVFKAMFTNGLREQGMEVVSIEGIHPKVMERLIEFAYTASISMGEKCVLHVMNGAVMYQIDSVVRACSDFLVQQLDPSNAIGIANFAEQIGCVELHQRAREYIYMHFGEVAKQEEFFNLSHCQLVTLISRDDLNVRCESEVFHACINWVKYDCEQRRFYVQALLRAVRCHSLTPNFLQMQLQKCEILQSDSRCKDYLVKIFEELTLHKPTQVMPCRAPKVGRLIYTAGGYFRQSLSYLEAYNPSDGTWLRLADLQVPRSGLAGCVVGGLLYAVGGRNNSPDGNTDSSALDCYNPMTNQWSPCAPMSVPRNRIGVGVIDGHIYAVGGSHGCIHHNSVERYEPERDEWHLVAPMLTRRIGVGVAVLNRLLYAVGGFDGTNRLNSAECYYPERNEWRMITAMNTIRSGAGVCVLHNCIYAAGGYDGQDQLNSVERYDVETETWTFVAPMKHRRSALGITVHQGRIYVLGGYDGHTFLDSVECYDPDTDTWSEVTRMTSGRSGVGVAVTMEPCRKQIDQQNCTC

Experimental findings from article PMC9888386 (The Journal of Clinical Investigation, 2023) are described below.

The target in the assay is T1, KEAP1 (microscale thermophoresis assay) (UniProt Q14145 1-624).
T1 construct: KEAP1 as used in the microscale thermophoresis assay; May be the same as GST-KEAP1-WT
Briefly: MST; microscale thermophoresis; conditions in the Supplemental Methods, not shown.

B1: purified FAM117B protein (natural protein, UniProt Q6P1L5 1-589, looked up)
chain: MSQRVRRNGSPTPAGSLGGGAVATAGGPGSRLQPMRATVPFQLKQQQQQQHGSPTRSGGGGGGNNNGGCCGGASGPAGGGGGGGPRTASRSTSPTRGGGNAAARTSPTVATQTGASATSTRGTSPTRSAAPGARGSPPRPPPPPPLLGTVSSPSSSPTHLWTGEVSAAPPPARVRHRRRSPEQSRSSPEKRSPSAPVCKAGDKTRQPSSSPSSIIRRTSSLDTLAAPYLAGHWPRDSHGQAAPCMRDKATQTESAWAEEYSEKKKGSHKRSASWGSTDQLKEIAKLRQQLQRSKHSSRHHRDKERQSPFHGNHAAINQCQAPVPKSALIPVIPITKSTGSRFRNSVEGLNQEIEIIIKETGEKEEQLIPQDIPDGHRAPPPLVQRSSSTRSIDTQTPGGADRGSNNSSRSQSVSPTSFLTISNEGSEESPCSADDLLVDPRDKENGNNSPLPKYATSPKPNNSYMFKREPPEGCERVKVFEECSPKQLHEIPAFYCPDKNKVNFIPKSGSAFCLVSILKPLLPTPDLTLKGSGHSLTVTTGMTTTLLQPIAVASLSTNTEQDRVSRGTSTVMPSASLLPPPEPIEEAEG
notes: FAM117B; Used for the GST pull-down; source: purified
For the molecule B1, the Kd was determined as 7.97 µM.
